Data taken from BindingDB's records for doi:10.1016/j.bmcl.2016.06.017 (University of Pittsburgh, 2016).
pIC50: −log10 of the molar value.

Test: Inhibition of IL6-induced STAT3 in human CAL33 cells

pIC50: 5.24
SMILES: COc1ccc(C2=Nn3c(nnc3-c3cc(-c4ccc(Cl)cc4)n[nH]3)SC2C)cc1 (stereo unspecified)
